Yeast mating assay 1: variants of the scFv Ab-14

From the AlphaSeq antibody data of Engelhart et al. 2022 (doi:10.1038/s41597-022-01779-4), copy in the FLAb collection.

Target: peptide PDVDLGDISGINAS, taken from heptad repeat 2 (HR2) of SARS-CoV-2 spike.

Parent: Ab-14, a human scFv built as VH, three GGGGS repeats, VL. Only the CDRs of the light chain vary.
VH: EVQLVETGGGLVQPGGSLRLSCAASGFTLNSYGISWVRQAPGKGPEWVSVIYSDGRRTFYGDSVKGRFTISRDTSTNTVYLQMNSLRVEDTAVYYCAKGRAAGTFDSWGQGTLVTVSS
VL: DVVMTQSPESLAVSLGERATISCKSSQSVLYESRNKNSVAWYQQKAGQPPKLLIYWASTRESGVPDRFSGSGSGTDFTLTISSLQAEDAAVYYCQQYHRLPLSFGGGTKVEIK

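Library AAYL50 holds single substitutions and randomly drawn double and triple substitutions in the CDRs. The scFvs were displayed on barcoded MATa yeast, the peptide on MATalpha yeast. Mating (16 h, 30 °C) was followed by selection of diploids and sequencing of their barcodes. The ratio of observed to expected reads was calibrated, replicate by replicate, on BCL2-family standards whose Kd was known from biolayer interferometry. The assay was run in three technical replicates.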

The parent's light chain CDRs are KSSQSVLYESRNKNSVA, WASTRES, QQYHRLPLS; each variant's own CDRs replace them letter for letter. All variants listed here change A40 of the VL, counted from its first residue. Each Kd is an estimate from the mating assay, the geometric mean of the replicates in which the pair was seen; lower is stronger. "not detected" marks a missing value. The strain was present, yet no cells mated with the target were sequenced in any replicate, which points to weak or no binding. In this assay the parent's reference entry averaged 4.4 nM; its copy inside this library read 48 nM. Three control strains display no target. For library AAYL50, 18% of the pairings with them gave a signal, with a median of 15 µM and one signal in twenty below 970 nM, so weak values seen in few replicates may be background.

| CDR-L1 | CDR-L2 | CDR-L3 | Kd | seen in |
|---|---|---|---|---|
| KSSQSVLDESRNKNSVH | WASTRTS | QQYHRLPLS | not detected | 0/3 |
| KSSQSVLYESRNKKSVW | WASTRES | SQYHRLPLS | not detected | 0/3 |
| HSSQSVLYESRNKNSVK | WASTRES | QQYHRLPLS | 51 µM | 3/3 |
| KSSCSVLYESRNKNSVG | WASNRES | QQYHRLPLS | not detected | 0/3 |
| KSSQSVLYESRNKNSVY | WASTRGS | QEYHRLPLS | not detected | 0/3 |
| KSSQCWLYESRNKNSVE | WASTRES | QQYHRLPLS | not detected | 0/3 |
| KSSQSVLYEQRNKSSVW | WASTRES | QQYHRLPLS | not detected | 0/3 |
| KSSYSVLYESRNKNSVP | WASTRES | QKYHRLPLS | 78 µM | 1/3 |
| KSSQRVLYESRNKSSVI | WASTRES | QQYHRLPLS | 2.8 µM | 2/3 |
| KSSPSVLYESRNKNHVK | WASTRES | QQYHRLPLS | not detected | 0/3 |
| KSSSSVLYESRNKNSVK | WISTRES | QQYHRLPLS | not detected | 0/3 |
| QVSQSVLYESRNKNSVC | WASTRES | QQYHRLPLS | not detected | 0/3 |
| KSEQSVLYESRNKNSVW | NASTRES | QQYHRLPLS | 1.2 µM | 1/3 |
| KSSQSVLYESRNKNSVN | WASTRES | TQYHRLPLS | 59 µM | 1/3 |
| KSSQSVLYESRNKNSVK | WASTRES | QVYHTLPLS | 35 µM | 2/3 |
| KSSQSALYESRNKNSVL | WASTRES | QQYHRLPMS | 80 µM | 1/3 |
| KSSQSVLYESRNKNSVL | WASTRDS | QQVHRLPLS | 8.1 µM | 3/3 |
| DSSQSVLYESCNKNSVN | WASTRES | QQYHRLPLS | 8.9 µM | 1/3 |
| KSSQSVLYESRSKNSVG | WASTRES | QQYHRLPLV | 6.4 µM | 1/3 |
| KSSQSHLYESRNKNSVP | WASTRES | QQYFRLPLS | not detected | 0/3 |
| KSSQSVLYESRNKNSVM | WASTRES | QQYHRLPLS | not detected | 0/3 |
| KSSQSVLYESRNKNSVL | WQSTRES | QQYHRLQLS | not detected | 0/3 |
| KSSSSVLYESRNKNSVK | WASTRES | QQYHRLPLS | 4.0 µM | 1/3 |
| KSSQSVLFESRNKNTVI | WASTRES | QQYHRLPLS | not detected | 0/3 |
| KSSQSVLYESRFKNSVV | WASTRES | QQYHRLPLS | not detected | 0/3 |
| KSSQSVIYESRNKNSVD | WASGRES | QQYHRLPLS | not detected | 0/3 |
| KSSQSVLYESRNKNSVH | WASTRES | AQYWRLPLS | 9.7 µM | 1/3 |
| KSSQSVLYESRNKNSVI | WAWTRES | QQYHRLDLS | not detected | 0/3 |
| SSSQSVLYFSRNKNSVC | WASTRES | QQYHRLPLS | 26 µM | 2/3 |
| KSSQSVLYESRNKNQVV | WASLRES | QQYHRLPLS | not detected | 0/3 |
| KSSQSVLYESRNKNSVT | WASTRES | QGYHRLPLK | not detected | 0/3 |
| KSSQEVLYESRNKNSVI | WASTNES | QQYHRLPLS | 3.8 µM | 1/3 |
| ASSQSVLYESRNKNSVN | WASTRES | QAYHRLPLS | 57 µM | 1/3 |
| KSSQSVLYESRNKNSVG | WASTTES | RQYHRLPLS | not detected | 0/3 |
| KSSQSVLYESRNKNSKH | WASTDES | QQYHRLPLS | not detected | 0/3 |
| KSSQSVLYESRNKNSVR | WASTRES | QQYHRLPLS | not detected | 0/3 |
| KSSQSVLYESRNKNPVG | WASTRES | TQYHRLPLS | not detected | 0/3 |
| KSSQSVLNESRNKNSVC | WASTRES | QQHHRLPLS | 4.4 µM | 1/3 |
| KSSQSVNYESRNKNSVT | WASTRES | QQSHRLPLS | not detected | 0/3 |
| KSSQSVLYESRNKNSRH | WASTRES | QQYFRLPLS | 2.4 µM | 1/3 |
| KSSQSVLYESRNKNSVL | WANTRES | QTYHRLPLS | 44 µM | 1/3 |
| KSSQSSLYESRNKNSVW | WASTRES | QQYHRLPLS | not detected | 0/3 |
| KSSQSVLYESRNVNSVS | WASTRES | QQYHRLPLS | 160 nM | 2/3 |
| KHSQSVLYESRNKNSVD | WASTRES | PQYHRLPLS | not detected | 0/3 |
| KSSQSVLYEEINKNSVT | WASTRES | QQYHRLPLS | not detected | 0/3 |
| KSSQSVLYESRMKNSVG | WASTRES | QQYIRLPLS | 110 µM | 2/3 |

Excerpt, the final 6 entries:

CDR-L1,CDR-L2,CDR-L3,Kd,seen in
KSSQSVLYESRNKNSVL,WANTRES,QTYHRLPLS,44 µM,1/3
KSSQSSLYESRNKNSVW,WASTRES,QQYHRLPLS,not detected,0/3
KSSQSVLYESRNVNSVS,WASTRES,QQYHRLPLS,160 nM,2/3
KHSQSVLYESRNKNSVD,WASTRES,PQYHRLPLS,not detected,0/3
KSSQSVLYEEINKNSVT,WASTRES,QQYHRLPLS,not detected,0/3
KSSQSVLYESRMKNSVG,WASTRES,QQYIRLPLS,110 µM,2/3